Assay [1] has as its target T1, Amine oxidase [flavin-containing] B (Homo sapiens, UniProt P27338). Nature of the assay: Inhibition of recombinant human MAO-B assessed as inhibition of kynuramine conversion to fluorescent metabolite 4-hydroxyquinoline after 20 mins by fluorescence spectrophotometry. An outline of the steps:
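IC50 values were read from sigmoidal concentration–inhibition curves of enzyme activity plotted against log inhibitor concentration.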

The chains behind the UniProt entries cited, without tags or fusion partners.
UniProt P27338, whole entry: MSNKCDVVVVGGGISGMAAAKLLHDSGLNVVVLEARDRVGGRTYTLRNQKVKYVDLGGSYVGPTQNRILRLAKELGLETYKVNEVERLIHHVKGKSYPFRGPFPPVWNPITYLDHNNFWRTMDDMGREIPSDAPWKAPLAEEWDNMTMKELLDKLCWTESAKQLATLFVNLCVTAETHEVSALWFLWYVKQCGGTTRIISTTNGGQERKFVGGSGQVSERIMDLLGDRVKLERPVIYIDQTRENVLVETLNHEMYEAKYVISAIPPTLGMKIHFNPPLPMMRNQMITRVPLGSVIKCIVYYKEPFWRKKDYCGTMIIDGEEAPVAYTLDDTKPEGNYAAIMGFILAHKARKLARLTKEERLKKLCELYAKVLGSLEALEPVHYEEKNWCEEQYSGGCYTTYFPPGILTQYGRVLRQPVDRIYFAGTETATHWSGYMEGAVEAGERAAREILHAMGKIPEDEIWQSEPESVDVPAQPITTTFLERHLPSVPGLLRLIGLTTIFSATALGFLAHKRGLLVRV

In assay [2] the target is T1, Amine oxidase [flavin-containing] B. Nature of the assay: Reversible competitive inhibition of recombinant human MAO-B using kynuramine as substrate assessed as formation of 4-hydroxyquinoline by Lineweaver-Burk plot analysis.

What is called IC50 is the concentration that gives 50% inhibition. By Ki is commonly meant a dissociation constant, usually derived from enzyme kinetics or from competition with a known ligand. Consider `O=C1CCc2ccc(OCc3cccc(Br)c3)cc2N1`, for which the IC50 in assay [1] amounted to 2.9 nM. Also, the Ki in assay [2] was 2.7 nM.
Regarding `O=C1CCc2ccc(OCc3cccc(Cl)c3)cc2N1`, the IC50 in assay [1] turned out to be 6.2 nM.
